Inhibition data for two molecules are collected here from PubChem BioAssay AID720704 (The Scripps Research Institute Molecular Screening Center, 2013).

Protein sequences, listed by entry. Tags and fused reporters are not part of them.
UniProt Q01970, whole entry: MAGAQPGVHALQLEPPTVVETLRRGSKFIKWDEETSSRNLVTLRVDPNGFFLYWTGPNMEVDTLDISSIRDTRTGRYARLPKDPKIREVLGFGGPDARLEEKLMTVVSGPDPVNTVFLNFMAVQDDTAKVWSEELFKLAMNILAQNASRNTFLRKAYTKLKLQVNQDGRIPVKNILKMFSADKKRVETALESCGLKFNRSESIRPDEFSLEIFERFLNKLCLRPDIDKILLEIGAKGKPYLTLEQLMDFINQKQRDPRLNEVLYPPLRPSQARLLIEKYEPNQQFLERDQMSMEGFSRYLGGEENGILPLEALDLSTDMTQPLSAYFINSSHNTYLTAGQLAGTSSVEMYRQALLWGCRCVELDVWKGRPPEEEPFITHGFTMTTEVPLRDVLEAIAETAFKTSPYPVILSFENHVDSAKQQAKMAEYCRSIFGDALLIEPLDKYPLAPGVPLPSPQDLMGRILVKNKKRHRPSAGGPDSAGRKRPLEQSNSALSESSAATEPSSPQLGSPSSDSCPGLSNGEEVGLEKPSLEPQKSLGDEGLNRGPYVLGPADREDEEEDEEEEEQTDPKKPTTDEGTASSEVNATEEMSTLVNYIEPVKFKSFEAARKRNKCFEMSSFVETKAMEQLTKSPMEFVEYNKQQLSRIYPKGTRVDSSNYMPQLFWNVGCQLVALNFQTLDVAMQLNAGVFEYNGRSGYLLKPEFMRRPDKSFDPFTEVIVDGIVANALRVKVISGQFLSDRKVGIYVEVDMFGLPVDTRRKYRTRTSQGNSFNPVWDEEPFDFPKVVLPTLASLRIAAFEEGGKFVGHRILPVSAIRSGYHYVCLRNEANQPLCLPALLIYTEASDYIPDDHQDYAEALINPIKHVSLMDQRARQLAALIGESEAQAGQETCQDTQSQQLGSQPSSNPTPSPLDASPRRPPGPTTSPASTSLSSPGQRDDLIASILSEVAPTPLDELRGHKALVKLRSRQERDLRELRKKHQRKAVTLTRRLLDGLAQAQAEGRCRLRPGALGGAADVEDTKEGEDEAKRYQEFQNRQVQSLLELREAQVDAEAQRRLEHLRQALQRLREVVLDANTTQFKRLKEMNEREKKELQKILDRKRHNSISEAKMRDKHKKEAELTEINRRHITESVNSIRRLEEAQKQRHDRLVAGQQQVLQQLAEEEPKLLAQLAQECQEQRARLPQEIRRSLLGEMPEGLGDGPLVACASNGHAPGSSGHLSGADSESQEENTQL

The entries are a selection whose mix differs from that of the whole data set. Calls of active or inactive are those of the source. Cut-off read from the data, not from the text of the source: active = inhibition above about 11%; inactive = the rest.

The target of this assay is 1-phosphatidylinositol 4,5-bisphosphate phosphodiesterase beta-3 (Homo sapiens) (UniProt Q01970). Nature of the assay: phospholipase C beta3 enzyme inhibition – biochemical, fluorescence, primary screen (AID 720704).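 Note: 0% = median of compound wells on plate and 100% = full blocker control.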 Conditions: Purified PLC-beta3, fluorogenic substrate, at 12.2 µM, stronger effect = higher value.
`CCC(=O)N(c1ccccc1)C1(COC)CCN(CCn2nnn(CC)c2=O)CC1`: the inhibition is inactive: -0.59%.
`CCC(=O)N(c1ccccc1)C1(COC)CCN(CCc2cccs2)CC1`: the inhibition is inactive: 0.1%.

The inhibition is the change of the read-out against control, counted positive when it falls.
